The assay concerns the target Epidermal growth factor receptor (Homo sapiens, UniProt P00533). The settings on record: pH 7.6.

Only a part of the results on these compounds is given; other tests are left out.

As to `N#CC(C#N)=Cc1cc2c(cc1[N+](=O)[O-])OCO2`, the half-inhibitory concentration (IC50) was 560 µM.

These data come from BindingDB's records for 2552117 (1989).
